According to ChEMBL document CHEMBL4043287, “A Structure-Activity Relationship Study of Bitopic N6-Substituted Adenosine Derivatives as Biased Adenosine A1 Receptor Agonists” (J Med Chem, 2018):

Experiments:
Format in all cases: cell-based
Homo sapiens [1] = species: Homo sapiens; assay: Selectivity index, ratio of EC50 for human A1AR expressed in FlpIn-CHO cells to EC50 for human A2BAR expressed in FlpIn-CHO cells
Homo sapiens [2] = species: Homo sapiens; assay: Selectivity index, ratio of EC50 for human A2AAR expressed in FlpIn-CHO cells to EC50 for human A2BAR expressed in FlpIn-CHO cells
Homo sapiens [3] = species: Homo sapiens; assay: Selectivity index, ratio of EC50 for human A3AR expressed in FlpIn-CHO cells to EC50 for human A2BAR expressed in FlpIn-CHO cells
Homo sapiens [4] = species: Homo sapiens; assay: Selectivity index, ratio of EC50 for human A3AR expressed in FlpIn-CHO cells to EC50 for human A1AR expressed in FlpIn-CHO cells

Row | Compound | Ratio EC50 (Homo sapiens [1]) | Ratio EC50 (Homo sapiens [2]) | Ratio EC50 (Homo sapiens [3]) | Ratio EC50 (Homo sapiens [4])
1 | Nc1sc(-c2ccc(C(=O)NCCCCCCNc3nc(Cl)nc4c3ncn4[C@@H]3O[C@H](CO)[C@@H](O)[C@H]3O)cc2)c(-c2cccc(C(F)(F)F)c2)c1C(=O)c1ccccc1 | 200 | 200 | 200 | 
2 | Nc1sc(-c2ccccc2C(=O)NCCCCCCNc2ncnc3c2ncn3[C@@H]2O[C@H](CO)[C@@H](O)[C@H]2O)c(-c2cccc(C(F)(F)F)c2)c1C(=O)c1ccccc1 |  |  |  | 100
3 | Nc1sc(-c2cccc(C(=O)NCCCCCCNc3ncnc4c3ncn4[C@@H]3O[C@H](CO)[C@@H](O)[C@H]3O)c2)c(-c2cccc(C(F)(F)F)c2)c1C(=O)c1ccccc1 |  |  |  | 10
4 | O=C(NCCCCCCNc1ncnc2c1ncn2[C@@H]1O[C@H](CO)[C@@H](O)[C@H]1O)c1cccc(-c2cccs2)c1 | 200 | 200 | 200 | 
5 | Nc1nc(NCCCCCCNC(=O)c2ccc(-c3sc(N)c(C(=O)c4ccccc4)c3-c3cccc(C(F)(F)F)c3)cc2)c2ncn([C@@H]3O[C@H](CO)[C@@H](O)[C@H]3O)c2n1 | 200 | 200 | 200 | 
